Amino acid sequences for entries named in this document (tags omitted).
UniProt P21397, whole entry: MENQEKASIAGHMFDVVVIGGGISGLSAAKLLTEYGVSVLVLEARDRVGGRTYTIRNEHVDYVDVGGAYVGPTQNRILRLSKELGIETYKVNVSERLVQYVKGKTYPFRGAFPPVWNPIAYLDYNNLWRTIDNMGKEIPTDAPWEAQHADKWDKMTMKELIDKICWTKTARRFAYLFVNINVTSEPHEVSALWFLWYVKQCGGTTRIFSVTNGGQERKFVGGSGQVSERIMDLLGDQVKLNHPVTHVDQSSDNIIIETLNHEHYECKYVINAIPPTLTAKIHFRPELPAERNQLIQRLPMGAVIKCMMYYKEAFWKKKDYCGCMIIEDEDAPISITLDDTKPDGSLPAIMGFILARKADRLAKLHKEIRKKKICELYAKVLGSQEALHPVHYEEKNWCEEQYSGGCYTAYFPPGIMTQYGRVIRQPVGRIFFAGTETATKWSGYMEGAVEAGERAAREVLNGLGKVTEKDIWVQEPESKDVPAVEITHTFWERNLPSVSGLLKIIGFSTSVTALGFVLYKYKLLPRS

In ChEMBL document CHEMBL2390879, “Inhibition of monoamine oxidase by phthalide analogues” (Bioorg Med Chem Lett, 2013):

Target: Amine oxidase [flavin-containing] A (Homo sapiens, UniProt P21397)
Experiment: Inhibition of human recombinant monoamine oxidase-A assessed as kynuramine conversion to […] after 20 mins by fluorescence spectrophotometric analysis

Compound C#CCN(C)Cc1ccccc1 [PARGYLINE] has an IC50 of 13 µM.
